Assays:
[1] = target: T1, Melanocyte-stimulating hormone receptor (Mus musculus, UniProt Q01727); experiment: Binding affinity to mouse MC1R expressed in HEK293 cells assessed as inhibition constant by schild plot analysis; type: cell-based
[2] = target: T2, Melanocortin receptor 4 (Mus musculus, UniProt P56450); type: cell-based, HEK293
[3] = target: T2, Melanocortin receptor 4; experiment: Agonist activity against mouse MC4R expressed in HEK293 cells assessed as increase in cAMP level incubated for 2 hrs by AlphaScreen assay; type: functional, cell-based
[4] = target: T3, Melanocortin receptor 5 (Mus musculus, UniProt P41149); experiment: Agonist activity against mouse MC5R expressed in HEK293 cells assessed as increase in cAMP level incubated for 2 hrs by AlphaScreen assay; type: functional, cell-based
[5] = target: T4, Melanocortin receptor 3 (Mus musculus, UniProt P33033); experiment: Agonist activity against mouse MC3R expressed in HEK293 cells assessed as increase in cAMP level incubated for 2 hrs by AlphaScreen assay; type: functional, cell-based
[6] = target: T4, Melanocortin receptor 3; type: cell-based, HEK293
[7] = target: T3, Melanocortin receptor 5; experiment: Binding affinity to mouse MC5R expressed in HEK293 cells assessed as inhibition constant by schild plot analysis; type: cell-based
[8] = target: T1, Melanocyte-stimulating hormone receptor; experiment: Agonist activity against mouse MC1R expressed in HEK293 cells assessed as increase in cAMP level incubated for 2 hrs by AlphaScreen assay; type: functional, cell-based
[9] = target: T1, Melanocyte-stimulating hormone receptor; experiment: Partial agonist activity against mouse MC1R expressed in HEK293 cells assessed as increase in cAMP level incubated for 2 hrs by AlphaScreen assay; type: functional, cell-based

The chains behind the UniProt entries cited, without tags or fusion partners. Where a name states a change or a piece, a line headed by the entry shows the natural chain unless it says otherwise.
UniProt Q01727: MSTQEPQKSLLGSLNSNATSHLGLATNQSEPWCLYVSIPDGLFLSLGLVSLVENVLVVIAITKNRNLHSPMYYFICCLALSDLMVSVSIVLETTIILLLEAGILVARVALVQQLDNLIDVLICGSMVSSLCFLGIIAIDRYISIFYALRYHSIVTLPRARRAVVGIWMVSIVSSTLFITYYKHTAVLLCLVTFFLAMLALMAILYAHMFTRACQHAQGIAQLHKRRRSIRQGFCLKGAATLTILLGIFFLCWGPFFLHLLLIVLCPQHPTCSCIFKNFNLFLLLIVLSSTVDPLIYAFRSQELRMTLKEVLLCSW
UniProt P56450, whole entry: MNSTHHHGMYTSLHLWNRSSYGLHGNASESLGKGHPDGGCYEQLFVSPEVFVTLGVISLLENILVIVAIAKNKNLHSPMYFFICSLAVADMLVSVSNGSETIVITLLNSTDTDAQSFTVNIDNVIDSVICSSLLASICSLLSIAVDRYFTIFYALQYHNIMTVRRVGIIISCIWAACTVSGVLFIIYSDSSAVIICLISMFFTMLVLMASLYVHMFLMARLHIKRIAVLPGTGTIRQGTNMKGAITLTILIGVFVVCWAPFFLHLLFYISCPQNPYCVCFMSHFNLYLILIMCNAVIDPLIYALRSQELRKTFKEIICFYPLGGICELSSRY
UniProt P41149: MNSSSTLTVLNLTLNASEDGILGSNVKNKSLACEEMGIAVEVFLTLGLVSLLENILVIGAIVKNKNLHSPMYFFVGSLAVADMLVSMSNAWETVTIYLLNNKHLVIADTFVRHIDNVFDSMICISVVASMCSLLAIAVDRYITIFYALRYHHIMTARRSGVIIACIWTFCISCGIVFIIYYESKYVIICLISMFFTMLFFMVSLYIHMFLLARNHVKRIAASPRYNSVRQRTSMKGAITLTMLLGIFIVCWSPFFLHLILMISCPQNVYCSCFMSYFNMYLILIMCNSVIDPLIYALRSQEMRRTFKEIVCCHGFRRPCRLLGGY
UniProt P33033: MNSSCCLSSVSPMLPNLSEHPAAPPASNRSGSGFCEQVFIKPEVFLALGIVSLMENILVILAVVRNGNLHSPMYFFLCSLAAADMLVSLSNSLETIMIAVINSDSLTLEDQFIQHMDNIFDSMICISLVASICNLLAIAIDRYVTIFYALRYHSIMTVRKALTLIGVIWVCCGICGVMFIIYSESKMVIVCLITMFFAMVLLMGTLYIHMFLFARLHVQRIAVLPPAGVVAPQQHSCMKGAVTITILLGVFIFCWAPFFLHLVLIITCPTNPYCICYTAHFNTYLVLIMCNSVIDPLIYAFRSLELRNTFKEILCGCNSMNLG

Structure (SMILES) | Ki [1] [nM] | Ki [2] [nM] | EC50 [3] [nM] | EC50 [4] [nM] | EC50 [5] [nM] | Ki [6] [nM] | Ki [7] [nM] | EC50 [8] [nM] | EC50 [9] [nM]
CC(=O)N[C@H](Cc1ccc(I)cc1)C(=O)N[C@@H](CCCCNC(=N)N)C(=O)N[C@@H](Cc1ccc2ccccc2c1)C(=O)N[C@@H](CCCNC(=N)N)C(N)=O | 320 | 1.3 | > 100000 | > 100000 | > 100000 | 40 | 200 |  | 
CC(=O)N[C@H](Cc1ccc(I)cc1)C(=O)N[C@@H](CCCNC(=N)N)C(=O)N[C@@H](Cc1ccc2ccccc2c1)C(=O)N[C@H](CCCNC(=N)N)C(N)=O |  |  | > 100000 | > 100000 | > 100000 |  |  | > 100000 | 
CC(=O)N[C@H](Cc1ccc(I)cc1)C(=O)N[C@@H](CCN)C(=O)N[C@@H](Cc1ccc2ccccc2c1)C(=O)N[C@@H](CCCNC(=N)N)C(N)=O | 63 | 250 | > 100000 | > 100000 | > 100000 |  |  | > 100000 | 
CC(=O)N[C@H](Cc1ccc(I)cc1)C(=O)N[C@@H](Cc1c[nH]cn1)C(=O)N[C@@H](Cc1ccc2ccccc2c1)C(=O)N[C@@H](CCCNC(=N)N)C(N)=O | 630 |  |  |  | > 100000 | 2000 |  |  | 
CC(=O)N[C@H](Cc1ccc(I)cc1)C(=O)N[C@@H](CCCNC(=N)N)C(=O)N[C@@H](Cc1ccc2ccccc2c1)C(=O)N[C@@H](CCCN)C(N)=O | 400 | 1.6 | > 100000 | > 100000 | > 100000 | 40 | 400 |  | 3000
CC(=O)N[C@H](Cc1ccc(I)cc1)C(=O)N[C@@H](CCCCN)C(=O)N[C@@H](Cc1ccc2ccccc2c1)C(=O)N[C@@H](CCCNC(=N)N)C(N)=O | 320 | 8 |  | > 100000 | > 100000 |  |  |  | 
CC(=O)N[C@H](Cc1ccc(I)cc1)C(=O)N[C@@H](CCCNC(N)=O)C(=O)N[C@@H](Cc1ccc2ccccc2c1)C(=O)N[C@@H](CCCNC(=N)N)C(N)=O | 630 | 320 |  |  | > 100000 | 1600 |  |  | 
CC(=O)N[C@H](Cc1ccc(I)cc1)C(=O)N[C@@H](CCCNC(=N)N)C(=O)N[C@@H](Cc1ccc2ccccc2c1)C(=O)N[C@@H](CCN)C(N)=O | 320 | 1.6 |  |  |  | 16 | 200 |  | 
CC(=O)N[C@H](Cc1ccc(I)cc1)C(=O)N[C@@H](CCCNC(=N)N)C(=O)N[C@@H](Cc1ccc2ccccc2c1)C(=O)N[C@@H](Cc1c[nH]cn1)C(N)=O | 250 | 16 |  |  |  |  | 1300 |  | 
CC(=O)N[C@H](Cc1ccc(I)cc1)C(=O)N[C@@H](CCCNC(=N)N)C(=O)N[C@@H](Cc1ccc2ccccc2c1)C(=O)N[C@@H](CCCCNC(=N)N)C(N)=O | 50 | 6.3 |  |  |  | 20 |  |  | 
CC(=O)N[C@H](Cc1ccc(I)cc1)C(=O)N[C@@H](CCCNC(=N)N)C(=O)N[C@@H](Cc1ccc2ccccc2c1)C(=O)N[C@@H](CCCCN)C(N)=O |  |  | > 100000 | > 100000 | > 100000 |  |  |  | 
CC(=O)N[C@H](Cc1ccc(I)cc1)C(=O)N[C@H](CCCCN)C(=O)N[C@@H](Cc1ccc2ccccc2c1)C(=O)N[C@@H](CCCNC(=N)N)C(N)=O | 630 |  |  | > 100000 | > 100000 |  |  |  | 
CC(=O)N[C@H](Cc1ccc(I)cc1)C(=O)N[C@@H](CCCNC(=N)N)C(=O)N[C@@H](Cc1ccc2ccccc2c1)C(=O)N[C@@H](CCCNC(N)=O)C(N)=O | 1300 | 3.2 |  |  |  | 160 | 800 |  | 
CC(=O)N[C@H](Cc1ccc(I)cc1)C(=O)N[C@@H](CCCN)C(=O)N[C@@H](Cc1ccc2ccccc2c1)C(=O)N[C@@H](CCCNC(=N)N)C(N)=O | 200 |  |  |  |  |  |  |  | 
CC(=O)N[C@H](Cc1ccc(I)cc1)C(=O)N[C@@H](CCCNC(=N)N)C(=O)N[C@@H](Cc1ccc2ccccc2c1)C(=O)N[C@@H](CN)C(N)=O | 250 | 8 |  |  |  | 50 | 500 |  | 
CC(=O)N[C@H](Cc1ccc(I)cc1)C(=O)N[C@@H](CN)C(=O)N[C@@H](Cc1ccc2ccccc2c1)C(=O)N[C@@H](CCCNC(=N)N)C(N)=O |  | 1600 |  |  |  |  |  |  | 
CC(=O)N[C@H](Cc1ccc(I)cc1)C(=O)N[C@H](CCCNC(=N)N)C(=O)N[C@@H](Cc1ccc2ccccc2c1)C(=O)N[C@@H](CCCNC(=N)N)C(N)=O |  |  | > 100000 | > 100000 | > 100000 |  |  |  | 
